Data: PubChem BioAssay AID782 (Emory University Molecular Libraries Screening Center, 2007)
The list shows a part of the results, in another mix than the full data. Some structures show a salt or complex split into parts, the way the source records it. Active and inactive are the calls of the source.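 Rule for the calls: active = inhibition above about 30% (limit read from the data); inactive = the rest.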

Sequences of proteins named here, by UniProt entry; tags and fusion partners are left off.
UniProt P63073, whole entry, looked up: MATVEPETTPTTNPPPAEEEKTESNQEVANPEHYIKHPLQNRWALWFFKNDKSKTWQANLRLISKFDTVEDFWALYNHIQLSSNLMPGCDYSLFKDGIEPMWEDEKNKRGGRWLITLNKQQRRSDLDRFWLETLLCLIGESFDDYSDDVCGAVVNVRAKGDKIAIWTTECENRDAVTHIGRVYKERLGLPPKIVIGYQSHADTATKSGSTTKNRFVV
UniProt Q04637, whole entry, looked up: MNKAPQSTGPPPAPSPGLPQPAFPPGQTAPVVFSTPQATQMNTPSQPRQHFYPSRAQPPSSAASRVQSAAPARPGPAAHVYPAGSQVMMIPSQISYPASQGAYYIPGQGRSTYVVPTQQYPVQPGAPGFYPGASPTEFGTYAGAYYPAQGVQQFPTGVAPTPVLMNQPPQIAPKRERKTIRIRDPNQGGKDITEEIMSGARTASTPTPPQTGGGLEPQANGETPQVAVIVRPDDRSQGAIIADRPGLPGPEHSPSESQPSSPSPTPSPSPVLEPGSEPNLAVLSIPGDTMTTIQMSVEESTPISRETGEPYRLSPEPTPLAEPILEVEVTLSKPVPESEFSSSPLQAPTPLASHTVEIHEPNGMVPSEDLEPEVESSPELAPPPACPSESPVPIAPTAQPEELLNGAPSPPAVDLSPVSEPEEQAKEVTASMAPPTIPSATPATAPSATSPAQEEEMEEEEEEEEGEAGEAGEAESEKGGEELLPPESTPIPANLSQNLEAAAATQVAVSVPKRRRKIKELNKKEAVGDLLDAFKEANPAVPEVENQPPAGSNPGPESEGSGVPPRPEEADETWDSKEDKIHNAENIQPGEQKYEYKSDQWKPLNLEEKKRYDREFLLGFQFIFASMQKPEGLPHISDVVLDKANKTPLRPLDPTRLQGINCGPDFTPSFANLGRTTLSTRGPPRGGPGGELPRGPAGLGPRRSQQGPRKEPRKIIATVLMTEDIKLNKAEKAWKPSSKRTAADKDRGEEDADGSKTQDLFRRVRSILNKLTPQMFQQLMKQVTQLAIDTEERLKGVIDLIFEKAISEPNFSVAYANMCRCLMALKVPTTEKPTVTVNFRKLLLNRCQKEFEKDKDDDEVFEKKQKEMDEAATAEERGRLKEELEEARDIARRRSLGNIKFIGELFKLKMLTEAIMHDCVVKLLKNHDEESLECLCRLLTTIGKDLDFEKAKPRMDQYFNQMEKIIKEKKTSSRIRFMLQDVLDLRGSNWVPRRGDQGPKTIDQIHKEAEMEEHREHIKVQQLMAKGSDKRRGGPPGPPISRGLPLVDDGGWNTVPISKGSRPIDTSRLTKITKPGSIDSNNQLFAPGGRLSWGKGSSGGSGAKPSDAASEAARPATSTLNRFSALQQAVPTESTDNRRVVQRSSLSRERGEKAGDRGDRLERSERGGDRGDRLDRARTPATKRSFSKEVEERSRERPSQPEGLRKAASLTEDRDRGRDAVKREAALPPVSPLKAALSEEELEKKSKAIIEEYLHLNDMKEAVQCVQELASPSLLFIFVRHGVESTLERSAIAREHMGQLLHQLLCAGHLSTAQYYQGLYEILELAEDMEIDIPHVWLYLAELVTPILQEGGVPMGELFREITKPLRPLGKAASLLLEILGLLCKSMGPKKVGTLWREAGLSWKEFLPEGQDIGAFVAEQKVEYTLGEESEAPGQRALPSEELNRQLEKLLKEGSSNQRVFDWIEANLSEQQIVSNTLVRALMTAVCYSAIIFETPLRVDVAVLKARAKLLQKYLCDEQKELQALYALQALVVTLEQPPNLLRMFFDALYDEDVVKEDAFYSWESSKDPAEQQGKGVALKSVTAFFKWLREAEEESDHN

Molecular target: Eukaryotic translation initiation factor 4E (Mus musculus) + Eukaryotic translation initiation factor 4 gamma 1 (Homo sapiens) (UniProt P63073+Q04637)
Experiment: blockers of eIF4G binding by eIF4E – biochemical, uHTS, TR-FRET, eIF4GI fragment, primary screen (AID 782);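 note: 0% = full FRET control wells and 100% = background wells lacking eIF4GI fragment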
Settings: TR-FRET eIF4E-eIF4GI(517-606) binding, 2 h; at 21.7 µM; active compounds read high

Row | SMILES | inhibition
1 | Cc1nc2ccc3ccccc3c2s1.O=[N+]([O-])c1cc([N+](=O)[O-])c(O)c([N+](=O)[O-])c1 | inactive: -0.8%
2 | O=[N+]([O-])c1cc([N+](=O)[O-])c(-n2nnc3ccccc32)c([N+](=O)[O-])c1 | inactive: 4.65%
3 | COc1ccccc1OP(C)(=O)Nc1c(C)cccc1C (configuration not stated) | inactive: 8.87%
4 | CN1CCCCC1COC(=O)C1(O)c2ccccc2CCc2ccccc21 (configuration not stated) | inactive: 1.51%
5 | CP(=O)(Nc1ccc(SC(F)(F)F)cc1)Oc1ccccc1 (configuration not stated) | inactive: -2.91%
6 | CCCOc1ccc(NP(C)(=O)Oc2ccc(Cl)cc2)cc1 (configuration not stated) | inactive: 1.03%
7 | O=[N+]([O-])c1cc([N+](=O)[O-])c(Nc2nnnn2CCO)c([N+](=O)[O-])c1 | inactive: -11.4%
8 | CCOC(=O)C(CC)C1=NC(C)(C)Cc2ccccc21.O=[N+]([O-])c1cc([N+](=O)[O-])c(O)c([N+](=O)[O-])c1 (configuration not stated) | inactive: -0.08%
9 | CC1=NCCc2c1[nH]c1ccccc21.O=[N+]([O-])c1cc([N+](=O)[O-])c(O)c([N+](=O)[O-])c1 | inactive: -3.25%
10 | O=C(O)c1cccc(Nc2c([N+](=O)[O-])cc([N+](=O)[O-])cc2[N+](=O)[O-])c1 | inactive: 2.92%
11 | Cc1ccc(C)c(NP(C)(=O)Oc2ccccc2)c1 (configuration not stated) | inactive: 0.18%
12 | CP(=O)(Nc1cccc(Br)c1)Oc1ccccc1 (configuration not stated) | inactive: 3.74%
13 | Cc1cc(C)cc(OP(C)(=O)Nc2ccccn2)c1 (configuration not stated) | inactive: -1.29%
14 | COc1ccccc1OP(C)(=O)Nc1cccc(Br)c1 (configuration not stated) | inactive: -4.85%
15 | CCOC(=O)c1ccc(NP(C)(=O)Oc2cc(C)cc(C)c2)cc1 (configuration not stated) | inactive: -3.83%
16 | Cc1cc(C)cc(OP(C)(=O)Nc2ccc(C)cc2C)c1 (configuration not stated) | inactive: 8.12%
17 | CCN(CC)CCCOC(=O)C(O)(c1ccccc1)c1ccccc1 | inactive: -3.08%
18 | COc1ccccc1OP(C)(=O)Nc1ccc(C)cc1 (configuration not stated) | inactive: -3.98%
19 | Cc1ccc(NP(C)(=O)Oc2ccccc2)c(C)c1 (configuration not stated) | inactive: 1.24%
20 | CCOC(=O)c1ccc(NP(C)(=O)Oc2ccccc2)cc1 (configuration not stated) | inactive: -1.37%
21 | Cc1cc(C)cc(OP(C)(N)=O)c1 (configuration not stated) | inactive: 1.41%

Row | SMILES | inhibition
22 | COc1ccccc1OP(C)(=O)Nc1cc(Cl)ccc1C (configuration not stated) | inactive: -1.9%
23 | COc1ccc(OP(C)(=O)Nc2cccc(F)c2)cc1 (configuration not stated) | inactive: -1.93%
24 | O=[N+]([O-])c1ccc2c(c1)C=Nc1ccccc1O2 | inactive: 0.48%
25 | CC(C)(C)c1ccc(OP(C)(=O)Nc2ccc(SC(F)(F)F)cc2)cc1 (configuration not stated) | inactive: 10.9%
26 | Cc1cccc(C)c1OP(C)(N)=O (configuration not stated) | inactive: -2.25%
27 | CP(=S)(Nn1cnnc1)Oc1ccccc1 (configuration not stated) | inactive: -2.09%
28 | CP(=O)(Nc1ccccc1Br)Oc1ccccc1 (configuration not stated) | inactive: -1.1%
29 | COc1ccccc1OP(C)(=O)Nc1ccccc1 (configuration not stated) | inactive: 0.65%
30 | CCOC(=O)c1ccc(NP(C)(=O)Oc2ccc(OC)cc2)cc1 (configuration not stated) | inactive: 1.52%
31 | CCOP(C)(=S)SCC(=O)NC(C)C(=O)O (configuration not stated) | inactive: 0.42%
32 | CP(=O)(Nc1ccccn1)Oc1ccc(Cl)cc1 (configuration not stated) | inactive: 7.65%
33 | Cc1cccc(C)c1OP(C)(=O)Nc1ccc(SC(F)(F)F)cc1 (configuration not stated) | inactive: 3.8%
34 | CP(=O)(Nc1ccc(SC(F)(F)F)cc1)Oc1ccc(Cl)cc1 (configuration not stated) | inactive: 2.29%
35 | CP(=O)(Oc1ccccc1)OC(c1ccccc1)C(F)(F)F (configuration not stated) | inactive: -1.66%
36 | CCc1ccc(OP(C)(=O)N2CCN(c3ccc([N+](=O)[O-])cc3)CC2)cc1 (configuration not stated) | inactive: 2.2%
37 | CP(=O)(NC(=O)Nc1ccccc1)Oc1ccccc1 (configuration not stated) | inactive: 4.92%
38 | Cc1cc(C)cc(OP(C)(=O)Nc2ccc(SC(F)(F)F)cc2)c1 (configuration not stated) | inactive: -1.6%
39 | COc1ccccc1OP(C)(=O)Nc1ccccc1Br (configuration not stated) | inactive: -3.1%
40 | CP(=O)(Nc1ccc(Cl)cc1)Oc1ccc(F)cc1 (configuration not stated) | inactive: 6.74%
41 | CN(C)C(=O)c1c([N+](=O)[O-])cc([N+](=O)[O-])cc1[N+](=O)[O-] | inactive: 1.54%
42 | CCN(CC)CC(O)COC(=O)C(O)(c1ccccc1)C1CCCCC1 (configuration not stated) | inactive: 0.74%

Row | SMILES | inhibition
43 | COc1ccc(OP(C)(=O)Nc2ccc(Br)cc2)cc1 (configuration not stated) | inactive: 0.32%
44 | O=C(OCCCN1CCCC1)C(O)(c1ccccc1)C1CCCCC1 (configuration not stated) | inactive: 0.21%
45 | CP(=O)(Oc1ccccc1)N1CCOC1=O (configuration not stated) | inactive: -1.98%
46 | CCc1ccc(OP(C)(=O)Nc2cccnc2)cc1 (configuration not stated) | inactive: -4.77%
47 | CCOC(=O)c1ccc(NP(C)(=O)Oc2ccc(Cl)cc2)cc1 (configuration not stated) | inactive: 4.87%
48 | CP(=O)(OC12CC3CC(CC(C3)C1)C2)OC12CC3CC(CC(C3)C1)C2 | inactive: -0.11%
49 | Cc1nc2ccc3ccccc3c2o1.O=[N+]([O-])c1cc([N+](=O)[O-])c(O)c([N+](=O)[O-])c1 | inactive: 15.3%
50 | CP(=O)(OCCOc1ccccc1)OCCOc1ccccc1 | inactive: 0.59%
51 | CP(=O)(Nc1ccc(Cl)cc1Cl)Oc1ccccc1 (configuration not stated) | inactive: 1.86%
52 | Cc1cc(C)cc(OP(C)(=O)Nc2cccc(C(F)(F)F)c2)c1 (configuration not stated) | inactive: 2.24%
53 | COc1ccccc1OP(C)(=O)Nc1ccc(C)c(C)c1 (configuration not stated) | inactive: 9.32%
54 | COc1ccc(OP(C)(=O)Nc2ccccc2Br)cc1 (configuration not stated) | inactive: -3.85%
55 | O=[N+]([O-])c1cc([N+](=O)[O-])c(Nc2ccccn2)c([N+](=O)[O-])c1 | inactive: -2.23%
56 | Cc1c(NP(C)(=O)Oc2ccc(C(C)C)cc2)c(=O)n(-c2ccccc2)n1C (configuration not stated) | inactive: 1.79%
57 | CP(=O)(Nc1ccccn1)Oc1ccccc1 (configuration not stated) | inactive: -5.73%
58 | COc1ccccc1OP(C)(=O)Nc1ccc(C)cc1C (configuration not stated) | inactive: 0.02%
59 | CCc1ccc(OP(C)(=O)O)cc1 | inactive: 0.55%
60 | COc1ccccc1OP(C)(=O)Nc1ccc(Br)cc1 (configuration not stated) | inactive: -2.82%
61 | COc1ccc(OP(C)(=O)Nc2ccccn2)cc1 (configuration not stated) | inactive: -6.82%
62 | CN(C)CCOC(=O)C(O)(c1ccccc1)C1CCCC1 (configuration not stated) | inactive: 6.27%
63 | O=C(OC1CN2CCC1CC2)c1ccc([N+](=O)[O-])cc1 (configuration not stated) | inactive: 4.63%

Row | SMILES | inhibition
64 | O=C(OCCN1CCN(CCOCc2ccccc2)CC1)C(O)(c1ccccc1)c1ccccc1 | inactive: 0.53%
65 | COc1ccc2c(c1O)-c1c(O)c(OC)cc3c1[C@H](C2)[N+](C)(C)CC3.O=[N+]([O-])c1cc([N+](=O)[O-])c([O-])c([N+](=O)[O-])c1[O-] | inactive: -4.78%
66 | CP(=O)(Nc1ccccc1F)Oc1ccccc1 (configuration not stated) | inactive: 1.68%
67 | CC(C)c1ccc(OP(C)(=O)Nc2ccc(SC(F)(F)F)cc2)cc1 (configuration not stated) | inactive: 23%
68 | CCN(CC)CCCOC(=O)C(O)(c1ccccc1)C1CCCCC1 (configuration not stated) | inactive: -5.24%
69 | CP(=O)(Nc1ccccc1)Oc1ccc(F)cc1 (configuration not stated) | inactive: 0.25%
70 | CCCCCOc1ccc(NP(C)(=O)Oc2ccc(Cl)cc2Cl)cc1 (configuration not stated) | inactive: 7.58%
71 | CCOC(=O)c1ccc(NP(C)(=O)Oc2ccc(F)cc2)cc1 (configuration not stated) | inactive: 5.39%
72 | COc1ccc(OP(C)(=O)Nc2ccc(SC(F)(F)F)cc2)cc1 (configuration not stated) | inactive: -0.15%
73 | O=[N+]([O-])c1ccc(OP2(=O)COCCO2)cc1 (configuration not stated) | inactive: -2.27%
74 | Cc1cc(-c2cccc3ccccc23)c(C)cn1.O=[N+]([O-])c1cc([N+](=O)[O-])c(O)c([N+](=O)[O-])c1 | inactive: 7.45%
75 | O=[N+]([O-])c1cc([N+](=O)[O-])c(NCC2CCS(=O)(=O)C2)c([N+](=O)[O-])c1 (configuration not stated) | inactive: 3.64%
76 | COc1ccc(OP(C)(=O)Nc2cccc(Br)c2)cc1 (configuration not stated) | inactive: 0.78%
77 | CN(C)CCOC(=O)C(O)(c1ccccc1)C1CCCCC1 (configuration not stated) | inactive: 2.67%
78 | COc1ccc(NP(C)(=O)Oc2ccccc2OC)cc1 (configuration not stated) | inactive: 1.72%
79 | CP(=O)(Nc1ccc2c(c1)OCCO2)Oc1ccccc1 (configuration not stated) | inactive: 1.87%
80 | Cc1ccccc1NP(C)(=O)Nc1ccccc1C | inactive: -0.3%
81 | CP(=O)(Nc1ccc(SC(F)(F)F)cc1)Oc1ccc(F)cc1 (configuration not stated) | inactive: -3.1%
82 | CCOP(C)(=S)SCC(=O)NC(C)(CC)C(=O)O (configuration not stated) | inactive: -2.91%
